Test results reported in PMC10622513, “A fluorogenic, peptide-based probe for the detection of Cathepsin D in macrophages” (Communications Chemistry, 2023).

The chains behind the UniProt entries cited, without tags or fusion partners. Residues count along the entry.
UniProt P07339, 65-412: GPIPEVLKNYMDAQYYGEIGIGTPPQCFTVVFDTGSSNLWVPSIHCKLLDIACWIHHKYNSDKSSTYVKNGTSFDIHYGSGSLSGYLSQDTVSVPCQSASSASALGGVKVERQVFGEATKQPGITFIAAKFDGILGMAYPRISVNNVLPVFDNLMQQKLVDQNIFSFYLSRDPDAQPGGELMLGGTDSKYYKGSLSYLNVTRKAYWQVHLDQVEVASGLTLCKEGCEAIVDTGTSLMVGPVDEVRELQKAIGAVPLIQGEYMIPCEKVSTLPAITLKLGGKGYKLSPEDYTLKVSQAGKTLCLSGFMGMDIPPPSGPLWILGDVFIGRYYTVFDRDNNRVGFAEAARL

Molecular target: T1, CatD (Homo sapiens, UniProt P07339)
T1 construct: purchased Athens Biotechnology
Test: Inhibition of CatD activation of CatD-P3 (Fig. 3b)
Type: biochemical
Conditions: Pepstatin A 20 μM, CatD 50 nM, CatD-P3 20 μM, n = 3
Protocol: The time-dependent increase in fluorescence was monitored over 1 or 2 h using a fluorescence microplate reader at 37 °C. CatD-P3 (20 μM), 50 mM NaOAc, pH 4.0 buffer, enzymes (5 or 50 nM) and inhibitor Pepstatin A, where appropriate, were incubated in the wells for 30 min at 37 °C before adding the probe. Readings were taken immediately after addition of the probe and after every 30 s (the plate was shaken for 3 s before the start of the readings).
Probe CatD-P3 (20 μM) was incubated with or without Cat D (50 nM) in presence of absence of pepstatin A (20 μM), in the corresponding reaction buffer for 1.5 h. The mixture (25 μL) was then diluted to a final volume of 150 μL in a quartz cuvette. Emission spectrum readings were recorded in a spectrofluorometric range from 500 to 700 nm, with an excitation wavelength of 490 nm.

In the case of Pepstatin A, the “inhibition of CatD-P3 activation by CatD” value is reported as “efficiently inhibited”.
